Patent publication EP4825847A1, “NMDA RECEPTOR ANTAGONIST AND USE THEREOF” (dated 2026)

Chains of the proteins cited; added tags and fusions are not shown. Residues count along the entry.
UniProt Q12879, 23-1464 limits assumed: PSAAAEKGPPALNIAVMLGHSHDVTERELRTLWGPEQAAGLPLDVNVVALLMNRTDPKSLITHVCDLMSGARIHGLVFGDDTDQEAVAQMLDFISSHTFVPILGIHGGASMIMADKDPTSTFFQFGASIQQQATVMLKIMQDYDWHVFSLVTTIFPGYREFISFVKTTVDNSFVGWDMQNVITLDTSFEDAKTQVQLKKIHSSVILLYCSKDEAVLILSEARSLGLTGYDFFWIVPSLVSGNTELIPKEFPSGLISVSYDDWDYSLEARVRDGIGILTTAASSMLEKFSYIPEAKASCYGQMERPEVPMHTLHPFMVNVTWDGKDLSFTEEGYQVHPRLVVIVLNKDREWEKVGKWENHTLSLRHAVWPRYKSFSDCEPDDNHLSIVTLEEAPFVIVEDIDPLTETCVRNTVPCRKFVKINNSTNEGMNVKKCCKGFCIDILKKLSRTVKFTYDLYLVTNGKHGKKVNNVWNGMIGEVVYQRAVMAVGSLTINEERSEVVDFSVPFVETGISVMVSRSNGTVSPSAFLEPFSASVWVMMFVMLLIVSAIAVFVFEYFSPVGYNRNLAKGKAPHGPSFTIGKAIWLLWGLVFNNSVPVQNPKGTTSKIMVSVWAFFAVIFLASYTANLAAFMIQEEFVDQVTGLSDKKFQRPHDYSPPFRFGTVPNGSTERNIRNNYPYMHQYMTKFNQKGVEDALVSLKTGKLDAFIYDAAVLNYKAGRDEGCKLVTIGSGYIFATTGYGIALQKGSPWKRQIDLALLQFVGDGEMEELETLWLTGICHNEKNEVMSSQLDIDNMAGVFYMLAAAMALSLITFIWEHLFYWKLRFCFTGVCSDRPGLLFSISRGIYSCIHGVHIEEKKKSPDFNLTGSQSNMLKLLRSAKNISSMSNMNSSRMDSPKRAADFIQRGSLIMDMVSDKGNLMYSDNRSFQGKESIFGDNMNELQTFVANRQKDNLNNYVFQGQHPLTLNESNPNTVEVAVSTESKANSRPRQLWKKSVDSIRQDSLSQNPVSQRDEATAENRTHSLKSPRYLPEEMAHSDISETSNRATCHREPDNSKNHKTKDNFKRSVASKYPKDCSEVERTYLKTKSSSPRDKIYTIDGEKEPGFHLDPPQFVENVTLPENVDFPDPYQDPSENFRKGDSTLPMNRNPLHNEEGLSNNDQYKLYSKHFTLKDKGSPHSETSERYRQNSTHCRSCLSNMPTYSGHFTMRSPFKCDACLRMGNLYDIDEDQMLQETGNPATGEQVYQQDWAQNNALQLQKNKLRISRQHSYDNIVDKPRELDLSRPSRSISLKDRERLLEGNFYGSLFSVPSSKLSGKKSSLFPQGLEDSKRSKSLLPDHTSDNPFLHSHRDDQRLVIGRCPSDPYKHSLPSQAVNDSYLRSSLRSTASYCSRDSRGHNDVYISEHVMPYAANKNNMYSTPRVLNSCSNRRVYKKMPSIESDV

How the values were obtained:
[1] = biological target: human NMDA receptor GluN1 and GluN2A subunits (Homo sapiens, UniProt Q05586+Q12879); experiment: Whole-cell patch-clamp recording of NMDA receptor-mediated current in HEK293 cells; conditions: for IC50: read-out: IC50 (µM) inhibition on NMDAR-mediated current, fitted from 10, 3, 1, 0.3, 0.1, 0.03 µM; for % (10 µM) inhibition on NMDAR-mediated current: compound at 10 µM, glutamic acid 100 µM
Experimental: The day before transfection, HEK293 cells were inoculated into a 24-well plate with a 10 mm glass slide, and the glass slide was coated with polylysine in advance to increase the cell attachment. DMEM medium containing 10% FBS was added, and the cells were cultured in an incubator at 37°C and 5% CO2. When the cells were grown to 60%-70% confluency after 18-24 hrs, TRE-GluN1-GluN2A containing human GluN1 and GluN2A, and the plasmid cDNAs of tTA and pCAG-EGFP were transfected into HEK293 cells by lipofectin transfection (TRE-GluN1-GluN2A: tTA: pCAG-EGFP was 0.2 µg : 0.2 µg : 0.02 µg). Before transfection, a new DMEM medium was changed, and 1 µg/mL Dox (doxycycline) was added to the medium to induce stable expression. 100 µM D-APV and 10 mM MgCl2 were added to avoid excitotoxicity to cells caused by NMDAR overexpression. About 24 hrs after transfection, the cells with green fluorescence were selected for electrophysiological recording.
The glass slide inoculated with HEK293 cells was placed in a recording chamber, and an extracellular solution (NaCl 140 mM, KCl 2.8 mM, HEPES 10 mM, CaCl2 1 mM, glycine 0.1 mM, pH7.2) was perfused at a speed of 4 mL/ min. The channels of the ALA-VC^3 eight-channel pressurized perfusion system were filled with an extracellular solution for washing, an extracellular solution containing glutamic acid (100 µM), and an extracellular solution containing glutamic acid and the compound to be tested respectively. The dripping rate was approximately 1 drop per sec, with a volume of 10 µL per drop. HEK293 cells with moderate green fluorescence intensity and good attachment were recorded under a fluorescence microscope. The delivery glass microtube of the perfusion system was positioned at a distance of approximately ten cell diameters away from the cell to be recorded. The drug was sprayed on the cell surface under air pressure (0.02 MPa). The glass electrode with a resistance of 4-6 MΩ was drawn with a microelectrode drawing instrument, and filled with an internal solution (CsCl 125 mM, HEPES 10 mM, EGTA 11 mM). Using a microelectrode manipulator, the glass electrode was slowly pushed to the cells. After the electrode was attached to the cell membrane, a negative pressure was applied, to form a high-resistance seal of 1 GΩ or higher between the electrode tip and the cell membrane, and then a negative pressure was applied to rupture the cell member and establish a whole-cell recording configuration. After the whole cell recording configuration was formed, the cell membrane potential was clamped at -70 mV. The extracellular solution containing 100 µM glutamic acid, the extracellular solution containing 100 µM glutamic acid and the compound to be tested, and the extracellular fluid were sprayed by the perfusion system on the surface of the cell membrane in sequence, for a time of 10 s, 20 s, and 10 s respectively. The NMDA receptor-mediated current was recorded to evaluate the inhibitory effect of the compound to be tested on NMDAR containing GluN2A. The test process was controlled by pCLAMP 10.6, and the stimulation signal is generated and the feedback signal is collected by using Digidata 1440A digital-to-analog converter.
In the test, the inhibition (%) on NMDAR-mediated current was evaluated after the compound was administered at a concentration of 10 µM, or the inhibition of the compound at 10, 3, 1, 0.3, 0.1, and 0.03 µM were tested, and fitted to obtain the IC50 value.
The inhibition percentage (inhibition rate) of the compound of the present invention on NMDAR-mediated current = (1- NMDAR-mediated current after administration/NMDAR-mediated current before administration)*100%. The inhibition rates of the compound at 10, 3, 1, 0.3, 0.1, and 0.03 µM were imported into Graphpad prism software, and subjected to Nonlinear Regression analysis. The IC50 value was automatically calculated by curve fitting.

[2] = Solution stability: purity of the solution over 24 hrs in the solubility test; conditions: for solution stability: summary in words
Experimental: The solubilities of different forms of the compounds in media with different pH values were tested. The compound sample was weighed into a glass flask, and 1 mL or 2 mL of phosphate buffer pH=6.0, pure water, phosphate buffer pH=8.0, and/or 0.9% physiological saline respectively was added respectively, and magnetically stirred at 20°C for 24 hrs. A sample was taken for solubility test, and the purity of the solution over 24 hrs was tested. Table 18: Solubility test results of different crystal forms of the salts of Compound 2 in media with different pH values

[3] = Solid stability test (purity, crystal form, appearance on storage)
Experimental: Crystal Form A of the hydrochloride, Crystal Form B of the phosphate, and Crystal Form C of the mesylate of Compound 2 and Crystal Form G of the hydrochloride, Crystal Form I of the phosphate, and Crystal Form J of the mesylate of Compound 3 were respectively packaged and stored at an acceleration condition of 40°C/75% RH, a routing condition of 25°C/60% RH, and a high-temperature condition of 60°C, and the purity, crystal form, and appearance of the compounds were evaluated at different times. Table 20. Solid stability test results of Crystal Form A of Compound 2 hydrochloride

[4] = solution in Phosphate buffer pH=6.0, 24 h
[5] = solution in Phosphate buffer pH=8.0, 24 h
[6] = solution in Pure water pH=6.8, 24 h

Clc1cccc([C@]23CCCC[C@@H]2OCCN3)c1
IC50 [1]: 1.41 µM

Clc1ccccc1[C@@]12CCCC[C@H]1OCCN2
IC50 [1]: 0.849 µM

Clc1cscc1[C@]12CCCC[C@H]1OCCN2
% (10 µM) inhibition on NMDAR-mediated current [1]: 88%

Clc1sccc1[C@@]12CCCC[C@H]1OCCN2
% (10 µM) inhibition on NMDAR-mediated current [1]: 78%

Fc1csc([C@]23CCCC[C@H]2OCCN3)c1
% (10 µM) inhibition on NMDAR-mediated current [1]: 74%

[2H]C1([2H])CN[C@@]2(c3ccccc3)CCCC[C@H]2O1
% (10 µM) inhibition on NMDAR-mediated current [1]: 81%

[2H]C1([2H])CN[C@@]2(c3cccs3)CCCC[C@H]2O1
% (10 µM) inhibition on NMDAR-mediated current [1]: 95%

[2H]C1([2H])CN[C@]2(c3ccccc3)CCCC[C@@H]2O1
% (10 µM) inhibition on NMDAR-mediated current [1]: 70%

[2H]C1([2H])CO[C@@H]2CCCC[C@]2(c2ccccc2)N1
% (10 µM) inhibition on NMDAR-mediated current [1]: 86%

[2H]C1([2H])CO[C@H]2CCCC[C@@]2(c2ccccc2)N1
% (10 µM) inhibition on NMDAR-mediated current [1]: 74%

[2H]c1c([2H])c([2H])c(C23CCCCC2OCCN3)c([2H])c1[2H] (stereo not shown)
% (10 µM) inhibition on NMDAR-mediated current [1]: 69%

c1cc([C@@]23CCCC[C@@H]2OCCN3)cs1
% (10 µM) inhibition on NMDAR-mediated current [1]: 78%

c1cc([C@]23CCCC[C@@H]2OCCN3)cs1
% (10 µM) inhibition on NMDAR-mediated current [1]: 96%

c1cc([C@]23CCCC[C@H]2OCCN3)cs1
% (10 µM) inhibition on NMDAR-mediated current [1]: 87%

c1csc([C@@]23CCCC[C@@H]2CCCN3)c1
% (10 µM) inhibition on NMDAR-mediated current [1]: 30%

c1csc([C@]23CCCC[C@H]2CCCN3)c1
% (10 µM) inhibition on NMDAR-mediated current [1]: 32%

[2H]C1([2H])CO[C@@H]2CCCC[C@@]2(c2cccc(Cl)c2)N1 (single isomer, unassigned)
% (10 µM) inhibition on NMDAR-mediated current [1]: 77%

[2H]C1([2H])CO[C@H]2CCCC[C@]2(c2cccc(Cl)c2)N1 (single isomer, unassigned)
% (10 µM) inhibition on NMDAR-mediated current [1]: 70%

Clc1cccc([C@@]23CCCC[C@H]2OCCN3)c1 [Compound 2 mesylate]
IC50 [1]: 0.746 µM

Clc1cccc([C@@]23CCCC[C@H]2OCCN3)c1 [Compound 2]
IC50 [1]: 0.654 µM

Clc1cccc([C@@]23CCCC[C@H]2OCCN3)c1 [Crystal Form B of Compound 2 phosphate]
Purity (24 h) ([2]; solution in 0.9% physiological saline, 24 h): 99.88% | Purity (24 h) [2, 4]: 99.95% | Purity (24 h) [2, 5]: 99.98% | Purity (24 h) [2, 6]: 99.70% | solution stability [2]: good | Appearance ([3]; 0D (start of storage)): Dry white solid powder | Crystal Form ([3]; 0D (start of storage)): Crystal Form B | Purity ([3]; 0D (start of storage)): 99.98% | Appearance ([3]; 25°C/60% RH, 5D): White solid powder | Crystal Form ([3]; 25°C/60% RH, 5D): Crystal Form B | Purity ([3]; 25°C/60% RH, 5D): 99.97% | Appearance ([3]; 25°C/60% RH, 10D): White solid powder | Crystal Form ([3]; 25°C/60% RH, 10D): Crystal Form B | Purity ([3]; 25°C/60% RH, 10D): 99.98% | Appearance ([3]; 25°C/60% RH, 30D): White solid powder | Crystal Form ([3]; 25°C/60% RH, 30D): Crystal Form B | Purity ([3]; 25°C/60% RH, 30D): 99.98% | Appearance ([3]; 40°C/75% RH, 5D): White solid powder | Crystal Form ([3]; 40°C/75% RH, 5D): Crystal Form B | Purity ([3]; 40°C/75% RH, 5D): 99.99% | Appearance ([3]; 40°C/75% RH, 10D): White solid powder | Crystal Form ([3]; 40°C/75% RH, 10D): Crystal Form B | Purity ([3]; 40°C/75% RH, 10D): 99.98% | Appearance ([3]; 40°C/75% RH, 30D): White solid powder | Crystal Form ([3]; 40°C/75% RH, 30D): Crystal Form B | Purity ([3]; 40°C/75% RH, 30D): 99.98% | Appearance ([3]; 60°C, 5D): White solid powder | Crystal Form ([3]; 60°C, 5D): Crystal Form B | Purity ([3]; 60°C, 5D): 99.99% | Appearance ([3]; 60°C, 10D): White solid powder | Crystal Form ([3]; 60°C, 10D): Crystal Form B | Purity ([3]; 60°C, 10D): 99.99% | Appearance ([3]; 60°C, 30D): White solid powder | Crystal Form ([3]; 60°C, 30D): Crystal Form B | Purity ([3]; 60°C, 30D): 99.99%

Clc1ccccc1[C@@]12CCCC[C@H]1OCCN2 [Crystal Form I of Compound 3 phosphate]
Purity (24 h) [2, 4]: 99.88% | Purity (24 h) [2, 5]: 99.81% | Purity (24 h) [2, 6]: 99.86% | solution stability [2]: good | Appearance ([3]; 0D (start of storage)): Dry white solid powder | Crystal Form ([3]; 0D (start of storage)): Crystal Form I | Purity ([3]; 0D (start of storage)): 99.91% | Appearance ([3]; 40°C/75% RH, 7D): White solid powder | Crystal Form ([3]; 40°C/75% RH, 7D): New crystal form | Purity ([3]; 40°C/75% RH, 7D): 99.92% | Appearance ([3]; 60°C, 7D): White solid powder | Crystal Form ([3]; 60°C, 7D): Crystal Form I | Purity ([3]; 60°C, 7D): 99.95% | crystal form stability ([3]; high-temperature and acceleration conditions): undergoes crystal transformation

Clc1ccccc1[C@@]12CCCC[C@H]1OCCN2 [Crystal Form J of Compound 3 mesylate]
Purity (24 h) [2, 4]: 99.88% | Purity (24 h) [2, 5]: 99.81% | Purity (24 h) [2, 6]: 99.86% | solution stability [2]: good | Appearance ([3]; 0D (start of storage)): Dry white solid powder | Crystal Form ([3]; 0D (start of storage)): Crystal Form J | Purity ([3]; 0D (start of storage)): 99.95% | Appearance ([3]; 40°C/75% RH, 7D): White solid powder | Crystal Form ([3]; 40°C/75% RH, 7D): Crystal Form J | Purity ([3]; 40°C/75% RH, 7D): 99.96% | Appearance ([3]; 40°C/75% RH, 30D): White solid powder | Crystal Form ([3]; 40°C/75% RH, 30D): Crystal Form J | Purity ([3]; 40°C/75% RH, 30D): 99.95% | Appearance ([3]; 60°C, 7D): White solid powder | Crystal Form ([3]; 60°C, 7D): Crystal Form J | Purity ([3]; 60°C, 7D): 99.97% | Appearance ([3]; 60°C, 30D): White solid powder | Crystal Form ([3]; 60°C, 30D): Crystal Form J | Purity ([3]; 60°C, 30D): 99.98%

Structures can show the parent of a compound that is named as a salt.
